Experimental data published in patent publication US9487818B2, “TOP2A inhibition by temozolomide and its predictive value of GBM patients survival” (COUNCIL OF SCIENTIFIC & INDUSTRIAL RESEARCH, priority 2010, dated 2016).

Chains of the proteins cited; added tags and fusions are not shown. Lines headed by an entry give the natural chain unless they say otherwise; changes in a name come on top.
UniProt P11388: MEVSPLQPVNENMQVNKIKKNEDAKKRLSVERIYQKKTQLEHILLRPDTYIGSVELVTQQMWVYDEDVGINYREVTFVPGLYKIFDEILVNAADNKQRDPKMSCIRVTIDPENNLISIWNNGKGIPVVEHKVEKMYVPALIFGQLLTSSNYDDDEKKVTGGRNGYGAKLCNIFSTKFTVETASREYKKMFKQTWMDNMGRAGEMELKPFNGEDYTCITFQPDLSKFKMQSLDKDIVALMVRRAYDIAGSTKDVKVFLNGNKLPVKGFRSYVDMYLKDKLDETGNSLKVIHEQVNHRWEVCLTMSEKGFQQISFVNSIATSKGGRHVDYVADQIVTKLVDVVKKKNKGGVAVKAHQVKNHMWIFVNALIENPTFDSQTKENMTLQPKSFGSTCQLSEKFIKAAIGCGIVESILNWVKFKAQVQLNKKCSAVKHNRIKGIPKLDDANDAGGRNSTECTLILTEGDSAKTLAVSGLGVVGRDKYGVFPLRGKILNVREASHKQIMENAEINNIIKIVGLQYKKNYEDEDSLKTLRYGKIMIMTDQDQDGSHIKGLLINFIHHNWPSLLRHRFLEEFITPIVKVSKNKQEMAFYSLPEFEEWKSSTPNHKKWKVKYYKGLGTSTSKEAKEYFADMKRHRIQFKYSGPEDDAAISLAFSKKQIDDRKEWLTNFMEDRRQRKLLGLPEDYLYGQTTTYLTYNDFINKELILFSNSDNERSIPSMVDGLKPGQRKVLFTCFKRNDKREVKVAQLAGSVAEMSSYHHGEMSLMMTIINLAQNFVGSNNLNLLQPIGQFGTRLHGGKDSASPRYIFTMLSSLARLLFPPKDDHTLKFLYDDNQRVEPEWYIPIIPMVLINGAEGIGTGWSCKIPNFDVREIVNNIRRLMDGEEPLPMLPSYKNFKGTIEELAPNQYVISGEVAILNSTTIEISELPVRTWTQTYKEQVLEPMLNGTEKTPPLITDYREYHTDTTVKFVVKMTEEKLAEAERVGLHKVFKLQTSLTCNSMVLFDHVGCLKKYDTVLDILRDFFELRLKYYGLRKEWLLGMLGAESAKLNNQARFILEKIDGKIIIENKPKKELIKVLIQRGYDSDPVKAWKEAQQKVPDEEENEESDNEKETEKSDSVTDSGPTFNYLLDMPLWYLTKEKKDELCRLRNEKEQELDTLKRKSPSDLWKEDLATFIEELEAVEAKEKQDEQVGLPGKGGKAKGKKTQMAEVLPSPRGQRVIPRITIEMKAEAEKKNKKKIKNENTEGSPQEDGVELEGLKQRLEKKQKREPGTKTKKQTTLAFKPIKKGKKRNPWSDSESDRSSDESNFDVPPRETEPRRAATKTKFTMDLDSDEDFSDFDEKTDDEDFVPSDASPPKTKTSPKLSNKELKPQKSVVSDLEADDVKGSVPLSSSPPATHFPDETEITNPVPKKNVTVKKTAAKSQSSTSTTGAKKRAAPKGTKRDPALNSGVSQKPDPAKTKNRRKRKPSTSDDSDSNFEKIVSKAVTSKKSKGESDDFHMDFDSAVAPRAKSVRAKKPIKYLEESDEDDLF

Target: T1, TOP2A (Homo sapiens, UniProt P11388)
T1 construct: 2 units of TOP2A (Topgen Cat#200H-2); purchased Topgen 200H-2
Assay: TOP2A enzyme assay (plasmid relaxation assay)
Type: biochemical
Conditions: supercoiled plasmid DNA pBR322, 2 units TOP2A, 37° C. 30 min, increasing concentrations
Description: A plasmid relaxation assay by TOP2A enzyme was carried out in the absence of etoposide (lane 2) or increasing concentrations of etoposide (lane 3-5) or ethanol (vehicle control) (lane 6).
A plasmid relaxation activity by TOP2A enzyme was carried out in the absence of temozolomide (lane 2) or increasing concentrations of temozolomide (lane 3-4) or DMSO (vehicle control) (lane 5).
TOP2A activity was measured in vitro using a plasmid relaxation assay. Briefly, relaxation assays contained plasmid DNA (pBR322; 200 ng per reaction) and 2 units of TOP2A (Topgen Cat#200H-2) in a final volume of 30 μl in topoisomerase II reaction buffer (50 mM Tris-Cl at pH 8.0, 150 mM KCl, 10 mM MgCl2, 5 mM ATP, 0.5 mM DTT, 30 μg/ml BSA). The reactions were incubated at 37° C. for 30 min, and terminated by the addition of 2.5 μl loading dye (30% glycerol and 0.25% bromophenol blue). The samples were analyzed on 1% native agarose gel (without any intercalator). Gels were stained with ethidium bromide for 10-15 min. To determine the effect of the etoposide or temozolomide, specific amounts were added in the reaction mixture.
To test this possibility, we carried out TOP2A enzyme assay in which the ability of TOP2A (170 kDa) enzyme to relax the super coiled plasmid DNA in the presence of temozolomide was evaluated. […]

## COc1cc([C@@H]2c3cc4c(cc3[C@@H](O[C@@H]3O[C@@H]5CO[C@@H](C)O[C@H]5[C@H](O)[C@H]3O)[C@H]3COC(=O)[C@H]23)OCO4)cc(OC)c1O [etoposide]
  inhibition of TOP2A relaxation activity: inhibited the TOP2A relaxation activity very efficiently in a concentration dependent manner
